{"sequences": {"note": "Protein sequences, listed by entry. Tags and fused reporters are not part of them. Lines headed by an entry give the natural chain unless they say otherwise; changes in a name come on top. Residues count along the entry.", "UniProt A0A287BIN3, 25-1109": "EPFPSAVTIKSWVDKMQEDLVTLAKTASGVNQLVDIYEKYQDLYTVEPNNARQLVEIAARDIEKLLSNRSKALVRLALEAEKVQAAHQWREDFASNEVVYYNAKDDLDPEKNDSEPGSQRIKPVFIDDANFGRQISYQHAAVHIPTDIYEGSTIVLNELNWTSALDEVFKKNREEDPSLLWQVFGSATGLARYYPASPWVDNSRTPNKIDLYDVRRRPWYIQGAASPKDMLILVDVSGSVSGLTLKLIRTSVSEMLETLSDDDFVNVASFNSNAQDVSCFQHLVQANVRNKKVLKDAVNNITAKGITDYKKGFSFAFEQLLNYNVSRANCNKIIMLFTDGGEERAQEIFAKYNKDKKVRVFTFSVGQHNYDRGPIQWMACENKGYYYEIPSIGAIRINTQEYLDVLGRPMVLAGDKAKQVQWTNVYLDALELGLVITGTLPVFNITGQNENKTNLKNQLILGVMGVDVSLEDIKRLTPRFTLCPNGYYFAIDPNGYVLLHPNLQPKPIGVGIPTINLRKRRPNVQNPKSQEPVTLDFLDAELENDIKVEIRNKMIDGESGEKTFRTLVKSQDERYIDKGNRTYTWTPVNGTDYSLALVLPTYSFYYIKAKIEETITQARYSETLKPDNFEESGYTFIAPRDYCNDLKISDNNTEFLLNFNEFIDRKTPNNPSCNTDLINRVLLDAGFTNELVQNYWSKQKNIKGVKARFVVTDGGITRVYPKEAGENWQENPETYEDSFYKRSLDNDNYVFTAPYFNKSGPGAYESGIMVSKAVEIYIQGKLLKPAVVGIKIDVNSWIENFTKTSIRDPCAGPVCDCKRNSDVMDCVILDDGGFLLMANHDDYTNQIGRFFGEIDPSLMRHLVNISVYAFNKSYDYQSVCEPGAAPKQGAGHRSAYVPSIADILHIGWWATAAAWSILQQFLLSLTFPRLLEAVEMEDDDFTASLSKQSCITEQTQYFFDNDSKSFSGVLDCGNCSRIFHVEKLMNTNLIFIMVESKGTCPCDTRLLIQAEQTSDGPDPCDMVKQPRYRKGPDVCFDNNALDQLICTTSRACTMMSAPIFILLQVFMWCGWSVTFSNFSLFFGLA"}, "source": "patent US6921835B2", "about": "“Cyclic amino acids and derivatives thereof useful as pharmaceutical agents” (Warner Lambert Company, priority 1997, dated 2005)", "molecular_target": "T1, α2δ subunit (Sus scrofa, UniProt A0A287BIN3)", "T1 construct": "the α2δ subunit derived from porcine brain tissue was used; from tissue; host or cells: porcine brain tissue", "experiment": "radioligand binding assay using [3H]gabapentin and the α2δ subunit", "set-up": "species or system porcine", "data": [{"smiles": "NCC1(CC(=O)O)CCCCC1", "note": "[Gabapentin, 1-(aminomethyl)-cyclohexaneacetic acid, reference compound]", "values": [{"measurement": "IC50", "value": "100 to 120", "unit": "nM"}]}]}
